# Test results reported in PubChem BioAssay AID504847 (National Center for Advancing Translational Sciences (NCATS), 2011).
# Sequences of proteins named here, by UniProt entry; tags and fusion partners are left off.
# UniProt P11473, whole entry: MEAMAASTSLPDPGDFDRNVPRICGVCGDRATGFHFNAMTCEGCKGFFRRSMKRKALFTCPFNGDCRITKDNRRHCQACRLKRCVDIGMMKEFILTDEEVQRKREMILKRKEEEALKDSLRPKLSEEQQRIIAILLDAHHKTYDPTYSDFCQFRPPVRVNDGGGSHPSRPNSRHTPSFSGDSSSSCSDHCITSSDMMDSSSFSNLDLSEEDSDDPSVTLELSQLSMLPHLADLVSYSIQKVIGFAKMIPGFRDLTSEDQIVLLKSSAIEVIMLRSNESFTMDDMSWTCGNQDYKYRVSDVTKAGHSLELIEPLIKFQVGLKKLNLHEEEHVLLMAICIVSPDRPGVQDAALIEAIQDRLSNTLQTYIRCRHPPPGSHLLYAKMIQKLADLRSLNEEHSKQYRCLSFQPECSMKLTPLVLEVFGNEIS
# Where “and” joins values, the source holds several entries; their conditions need not be identical. Equal values may be shown once. The list shows a part of the results, in another mix than the full data. Inconclusive results are not listed. Calls of active or inactive are those of the source. Calls follow the shape of the dose curve; as a rule, active = well fitted inhibition curve with a large enough effect; inconclusive = small, poorly fitted or top-dose-only effect, or another doubt; inactive = no such curve, though single readings can be large or run the other way.
# Target: Vitamin D3 receptor (Homo sapiens) (UniProt P11473)
# Assay: Inhibitors of the vitamin D receptor (VDR): qHTS
# Conditions: VDR-SRC2-3 peptide fluorescence polarization, 2 h; max response, negative = inhibition: active compounds read low
# % is scaled to controls: 0 for no effect and ±100 for the full control effect.
row,Compound,"max response, negative = inhibition"
1,CP(=O)(Nc1ccc2c(c1)OCCO2)Oc1ccccc1 (stereo unspecified),inactive: -3.98%
2,C[C@H]1OP(=O)(Oc2ccccc2)[C@H](O)[C@H](O)[C@H]1N=[N+]=[N-] (stereo partly specified),inactive: -15.1%
3,O=P(Nc1nc2ccccc2s1)(c1ccccc1)c1ccccc1,inactive: -8.94%
4,CN(C)CCOC(=O)C(O)(c1ccccc1)C1CCCCC1 (stereo unspecified),inactive: -1.17%
5,CN(C(=O)Cc1ccccc1)[C@H]1CC[C@@]2(CCCO2)C[C@@H]1N1CCCC1,inactive: 5.56%
6,COc1ccc(N)c([N+](=O)[O-])c1[N+](=O)[O-],inactive: -2.29%
7,COc1ccc(OP(C)(=O)Nc2cccc(Br)c2)cc1 (stereo unspecified),inactive: 1.14%
8,CN(C)C1(CNC(=O)c2ccc(Cl)c(S(N)(=O)=O)c2)CCCCC1,inactive: -4.96%
9,O=P(Nc1ccccn1)(c1ccc(Br)cc1)c1ccc(Br)cc1,inactive: -10%
10,C(Cc1nn[nH]n1)Cc1nn[nH]n1,inactive: -18%
11,Nc1ccc([As](=O)(O)c2ccc([N+](=O)[O-])cc2)cc1,inactive: 4.41%
12,Cc1c(C(c2ccc3c(c2)OCO3)c2c(C)n(C)n(-c3ccccc3)c2=O)c(=O)n(-c2ccccc2)n1C.O=[N+]([O-])c1cc([N+](=O)[O-])c(O)c([N+](=O)[O-])c1,inactive: -1.06%
13,O=C(OC1CN2CCC1CC2)c1cccc(Cl)c1 (stereo unspecified),inactive: -4.37%
14,O=[N+]([O-])c1ccc(OP2(=O)COCCO2)cc1 (stereo unspecified),inactive: 7.11%
15,CC(=O)NC(SC(=S)N(C)C)C(Cl)(Cl)Cl (stereo unspecified),inactive: -15.4%
16,O=[N+]([O-])c1ncn(CCn2cnc([N+](=O)[O-])n2)n1,inactive: -9.25%
17,O=[N+]([O-])c1ccc(O)c(/C=N/Nc2ccc([N+](=O)[O-])cc2[N+](=O)[O-])c1,inactive: -14.8%
18,Cc1cc(-c2cccc3ccccc23)c(C)cn1.O=[N+]([O-])c1cc([N+](=O)[O-])c(O)c([N+](=O)[O-])c1,inactive: -2.19%
19,O=[As](O)(c1ccccc1)c1ccc(O)cc1,inactive: 8.48%
20,O=C(Nc1cc([As](=O)(O)O)ccc1O)c1ccccc1,inactive: -10.1%
21,CCOC(=O)c1ccc(NP(C)(=O)Oc2ccc(Cl)cc2)cc1 (stereo unspecified),inactive: -16.5%
22,CP(=O)(OC12CC3CC(CC(C3)C1)C2)OC12CC3CC(CC(C3)C1)C2,inactive: -1.87%
23,Nc1ccc2c(ccc3cccnc32)n1.O=[N+]([O-])c1cc([N+](=O)[O-])c(O)c([N+](=O)[O-])c1,inactive: -12.6%
24,O=P1(N(CCCl)CCCl)OCCCS1 (stereo unspecified),inactive: 33.7%

row,Compound,"max response, negative = inhibition"
1,COC(=O)C1(C)COP(=O)(Nc2ccccc2)OC1 (stereo unspecified),inactive: 5.62%
2,C/C1=C2N=C(/C=C3N=C(/C(C)=C4\[N-][C@@](C)([C@H]5N=C1[C@@](C)(CCC(=O)NC[C@H](C)OP(=O)([O-])O[C@@H]1[C@H](O)[C@H](n6cnc7cc(C)c(C)cc76)O[C@@H]1CO)[C@@H]5CC(N)=O)[C@](C)(CC(N)=O)[C@H]4CCC(N)=O)[C@@](C)(CC(N)=O)[C@@H]\3CCC(N)=O)C(C)(C)[C@@H]/2CCC(N)=O.[C-]#N.[Co+3],inactive: -4.97%
3,O=C(O)CNc1ccc([As](=O)(O)O)cc1,inactive: 4.07%
4,CC(C)(C)C(=O)NC(Sc1ccncn1)C(Cl)(Cl)Cl (stereo unspecified),inactive: -19.5%
5,O=[N+]([O-])c1ncn(CCn2ncnc2[N+](=O)[O-])n1,inactive: 16.9%
6,OCCSCCO,inactive: -0.861%
7,COc1ccccc1OP(C)(=O)Nc1c(C)n(C)n(-c2ccccc2)c1=O (stereo unspecified),inactive: 3.26%
8,CCc1ccc(OP(C)(=O)Nc2cccnc2)cc1 (stereo unspecified),inactive: -2.18%
9,Cc1ccc(NP(=O)(Oc2ccccc2)Oc2ccccc2)nc1,inactive: -13.6%
10,CP(=O)(Oc1ccccc1)N1CCOC1=O (stereo unspecified),inactive: -0.212%
11,CCN(CC)CC(O)COC(=O)C(O)(c1ccccc1)C1CCCCC1 (stereo unspecified),inactive: -23.2%
12,CN(C)C(=O)OCCc1n(C)cc[n+]1C,inactive: -20.6%
13,CC(C)=N/N=C(\N)N[N+](=O)[O-],inactive: 3.59%
14,CN(C)C(=O)c1c([N+](=O)[O-])cc([N+](=O)[O-])cc1[N+](=O)[O-],inactive: -21.4%
15,CC(=O)C1=CCCC2CCC1N2 (stereo unspecified),inactive: 0.104% and inactive: -14%
16,CC1CCN(C(=O)Oc2c(Cl)cc(Cl)c3cccnc23)CC1,inactive: -4.69%
17,COc1ccccc1OP(C)(=O)Nc1ccccc1Br (stereo unspecified),inactive: 17.9%
18,Nc1ccc([As](=O)(O)c2ccc(N)cc2)cc1,inactive: 6.11%
19,CC(C)(C)c1ccc(OP(C)(=O)O)cc1,inactive: -1.9%
20,CP(=O)(Nc1ccc(Cl)cc1)Oc1ccc(F)cc1 (stereo unspecified),inactive: 2.05%
21,CCN(/C(=N/P(=O)(N1CCOCC1)N1CCOCC1)N1CCOCC1)c1ccc(OC)cc1,inactive: -13.8%
22,Cc1ccc(OP(=O)(Nc2nccs2)Oc2ccc(C)cc2)cc1,inactive: -17.4%
23,COc1ccccc1OP(=O)(Nc1ccc(C)cn1)Oc1ccccc1OC,inactive: 1.97%
24,COc1ccc(OP(C)(=O)Nc2ccccn2)cc1 (stereo unspecified),inactive: -11.6%

row,Compound,"max response, negative = inhibition"
1,CN1CCCC(OC(=O)C(c2ccccc2)c2ccccc2)C1 (stereo unspecified),inactive: 5.27%
2,CN(C)CCOC(=O)C(O)(c1ccccc1)C1CCCC1 (stereo unspecified),inactive: 0.301%
3,Clc1ccc(Cl)c(NC2=NCC(CBr)S2)c1 (stereo unspecified),inactive: -1.8%
4,NC(=O)c1cc([N+](=O)[O-])cc([N+](=O)[O-])c1N,inactive: -3.67%
5,COc1ccccc1OP(C)(=O)Nc1ccc(Br)cc1 (stereo unspecified),inactive: 5.69%
6,COc1ccccc1OP(C)(=O)Nc1ccc(C)cc1C (stereo unspecified),inactive: -21.5%
7,CP(=O)(Nc1ccccn1)Oc1ccccc1 (stereo unspecified),inactive: 0.105%
8,CCc1ccc(OP(C)(=O)O)cc1,inactive: 3.94%
9,Nc1cc(N)c2nonc2c1[N+](=O)[O-],inactive: -18.1%
10,Cc1c(NP(C)(=O)Oc2ccc(C(C)C)cc2)c(=O)n(-c2ccccc2)n1C (stereo unspecified),inactive: -19.6%
11,CC(C)CC(=O)NC(Sc1ccc(Cl)cc1)C(Cl)(Cl)Cl (stereo unspecified),inactive: -3.11%
12,Oc1ccccc1CNc1ccccn1,inactive: -3.17%
13,COc1ccccc1OP(C)(=O)Nc1ccc(C)c(C)c1 (stereo unspecified),inactive: -3.39%
14,Cc1ccc(NP(=O)(Oc2ccccc2F)Oc2ccccc2F)nc1,inactive: -1.18%
15,CCOP(=O)(Nc1ccccc1)OCC,inactive: 6.16%
16,COc1ccc(OP(C)(=O)Nc2ccccc2Br)cc1 (stereo unspecified),inactive: -2%
17,CCCC1OP(N)(=O)OCC1CC (stereo unspecified),inactive: 4.96%
18,CC(=O)Nc1ccc([As](=O)(O)O)cc1,inactive: -21.1%
19,O=P(Nc1nc2ccc(Cl)cc2s1)(c1ccccc1)c1ccccc1,inactive: 5.56%
20,CCN(N=Nc1nonc1N)c1nonc1N,inactive: -5.73%
21,CP(=O)(Nc1ccc(Cl)cc1Cl)Oc1ccccc1 (stereo unspecified),inactive: 25.8%
22,CCCCCCCCCCCCCCCC1C[N+](C)(C)CCOP(C)(=O)O1 (stereo unspecified),inactive: -15%
23,Nc1cccc2ccc([As](=O)(O)O)cc12,inactive: -18.2%
